Experimental data: ChEMBL document CHEMBL1201862, “PubChem BioAssay data set” (2004)
This is one part of the list. Cut-off read from the data, not from the text of the source: active = GI50 up to about 1.1 µM and inactive = higher. Only a part of the results of these assays is listed, not drawn at random.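 How tested: cells in 96-well plates exposed to compound for 48 hours at five concentrations. GI50: concentration for 50% inhibition of growth.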

Test system: NCI-H522
Experiment: NCI tumour cell line growth inhibition, 48 h

**Q.** For `COc1ccc2nccc(C=O)c2c1`, which GI50 is on record?
**A.** inactive: 29.6 µM

**Q.** Which GI50 does the source give for `O=C1Nc2ccc([N+](=O)[O-])cc2/C1=N/Nc1ccc([N+](=O)[O-])cc1[N+](=O)[O-]` here?
**A.** inactive: 20.3 µM

**Q.** For `O=[As](O)(O)O`, which GI50 is on record?
**A.** inactive: 20.4 µM

**Q.** Which GI50 does the source give for `ClCCSc1c2ccccc2nc2ccccc12` here?
**A.** inactive: 2.04 µM

**Q.** `O=[N+]([O-])C1([N+](=O)[O-])CCCc2nonc21` was tested. Which GI50 did it give?
**A.** inactive: 16.5 µM

**Q.** For `C[S+](N)(=O)CCC(N)P(=O)(O)O` (configuration not stated), which GI50 is on record?
**A.** inactive: 57.3 µM

**Q.** Which GI50 does the source give for `COP(C)(=O)C(N)Cc1ccccc1` (configuration not stated) here?
**A.** inactive: 80.4 µM

**Q.** `Cc1ccc2ccc3ccc4ccccc4c3c2c1.O=C1c2cc([N+](=O)[O-])ccc2-c2c1cc([N+](=O)[O-])cc2[N+](=O)[O-]` was tested. Which GI50 did it give?
**A.** active: 0.238 µM

**Q.** For `O=C1CCN2CCCC12` (configuration not stated), which GI50 is on record?
**A.** inactive: 64.3 µM

**Q.** For `O=[N+]([O-])C1([N+](=O)[O-])COCOC1`, which GI50 is on record?
**A.** inactive: 12.3 µM

**Q.** `CCCCCCCCCCCCCNCC(C)O` (configuration not stated) was tested. Which GI50 did it give?
**A.** inactive: 11.9 µM

**Q.** Which GI50 does the source give for `NNc1nc2nonc2nc1NN` here?
**A.** inactive: 10.5 µM

**Q.** `CCCC[S+](N)(=O)CCC(N)P(=O)(O)O` (configuration not stated) was tested. Which GI50 did it give?
**A.** inactive: > 100 µM

**Q.** Which GI50 does the source give for `COc1ccc([N+](=O)[O-])c(C[N+](C)(CCCl)CCCl)c1` here?
**A.** inactive: > 100 µM

**Q.** With `COc1ccc(C[N+](C)(CCCl)CCCl)c([N+](=O)[O-])c1` as the molecule, how does the GI50 read?
**A.** inactive: > 100 µM

**Q.** Which GI50 does the source give for `Nc1nc2c(ncn2CCN(CCCl)CCCl)c(=O)[nH]1` here?
**A.** inactive: > 100 µM

**Q.** Which GI50 does the source give for `Cc1ccc2ccc(C)c(C)c2c1.O=[N+]([O-])c1cc([N+](=O)[O-])c(O)c([N+](=O)[O-])c1O` here?
**A.** inactive: 70.1 µM
